Test: Solubility in water
Conditions: for solubility relative to that of the free ligand: complex vs. its ligand (maltol or ethylmaltol)

## magnesium maltol [Complex 1]
Example 2 product
  solubility: 3.33 mg/100 mL H2O
At RT, water
  solubility: 33.3 mg/mL
water, listed as 1
  solubility relative to that of the free ligand: approximately 2.8 ×
water, listed as magnesium maltol
  solubility relative to that of the free ligand: three times more soluble
Triplicate independent runs
  solubility: 3.33±0.19 g per 100 mL of H2O
